Measurements taken from patent publication US20090247559A1 (Exelixis, Inc., priority 2007, published 2009).

Protein sequences, listed by entry. Tags and fused reporters are not part of them.
UniProt P68400, whole entry: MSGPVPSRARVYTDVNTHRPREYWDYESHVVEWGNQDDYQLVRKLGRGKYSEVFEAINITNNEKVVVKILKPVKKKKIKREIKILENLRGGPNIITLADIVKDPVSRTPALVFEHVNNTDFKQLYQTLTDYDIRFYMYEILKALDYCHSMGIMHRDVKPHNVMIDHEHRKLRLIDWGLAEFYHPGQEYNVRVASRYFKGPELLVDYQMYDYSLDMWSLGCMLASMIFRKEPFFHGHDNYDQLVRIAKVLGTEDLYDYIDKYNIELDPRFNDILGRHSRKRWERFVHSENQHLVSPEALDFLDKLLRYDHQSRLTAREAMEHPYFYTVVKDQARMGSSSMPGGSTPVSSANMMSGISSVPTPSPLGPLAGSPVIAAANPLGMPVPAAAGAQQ
UniProt P67870, whole entry partner: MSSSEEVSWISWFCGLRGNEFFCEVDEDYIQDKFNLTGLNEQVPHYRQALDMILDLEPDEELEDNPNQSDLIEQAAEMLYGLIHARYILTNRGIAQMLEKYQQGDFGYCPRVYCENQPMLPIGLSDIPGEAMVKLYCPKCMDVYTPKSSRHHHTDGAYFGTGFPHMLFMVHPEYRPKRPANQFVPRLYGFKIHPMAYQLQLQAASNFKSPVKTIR

Tests used:
CK2 = CK2 (Homo sapiens, UniProt P68400); test: CK2 inhibition, biochemical chemiluminescence holoenzyme assay (Kinase Glo, IC50 determination); conditions: read-out: CK2 IC50 (Activity C); Table 1 activity class; symbol given only if active; tested form: HCl
[1] = target: PIM (PIM-1, PIM-2, and/or PIM-3)

With `O=C1N(Cc2nc3c(oc4ccc(Br)cc43)c(=O)[nH]2)CN(c2ccccc2)C12CCNCC2` the IC50 (CK2) was under 10 µM and the IC50 [1] was under 10 µM.
